# Legend:
# Amino acid sequences for entries named in this document (tags omitted). A change or cut given only in a name is not applied to a line headed by its entry. Residues count along the entry.
# UniProt P48729, 2-365 isoform P48729-2: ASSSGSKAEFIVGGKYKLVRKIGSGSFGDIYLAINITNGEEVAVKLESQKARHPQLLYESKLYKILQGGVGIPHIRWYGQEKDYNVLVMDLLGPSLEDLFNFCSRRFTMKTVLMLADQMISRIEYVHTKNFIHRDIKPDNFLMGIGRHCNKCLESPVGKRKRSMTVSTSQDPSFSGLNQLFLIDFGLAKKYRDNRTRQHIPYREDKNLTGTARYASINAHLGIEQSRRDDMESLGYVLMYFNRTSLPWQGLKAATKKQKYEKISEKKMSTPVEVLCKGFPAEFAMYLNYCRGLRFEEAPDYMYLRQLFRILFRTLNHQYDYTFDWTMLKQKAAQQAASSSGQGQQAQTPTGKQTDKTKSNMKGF
# UniProt Q9UJQ4: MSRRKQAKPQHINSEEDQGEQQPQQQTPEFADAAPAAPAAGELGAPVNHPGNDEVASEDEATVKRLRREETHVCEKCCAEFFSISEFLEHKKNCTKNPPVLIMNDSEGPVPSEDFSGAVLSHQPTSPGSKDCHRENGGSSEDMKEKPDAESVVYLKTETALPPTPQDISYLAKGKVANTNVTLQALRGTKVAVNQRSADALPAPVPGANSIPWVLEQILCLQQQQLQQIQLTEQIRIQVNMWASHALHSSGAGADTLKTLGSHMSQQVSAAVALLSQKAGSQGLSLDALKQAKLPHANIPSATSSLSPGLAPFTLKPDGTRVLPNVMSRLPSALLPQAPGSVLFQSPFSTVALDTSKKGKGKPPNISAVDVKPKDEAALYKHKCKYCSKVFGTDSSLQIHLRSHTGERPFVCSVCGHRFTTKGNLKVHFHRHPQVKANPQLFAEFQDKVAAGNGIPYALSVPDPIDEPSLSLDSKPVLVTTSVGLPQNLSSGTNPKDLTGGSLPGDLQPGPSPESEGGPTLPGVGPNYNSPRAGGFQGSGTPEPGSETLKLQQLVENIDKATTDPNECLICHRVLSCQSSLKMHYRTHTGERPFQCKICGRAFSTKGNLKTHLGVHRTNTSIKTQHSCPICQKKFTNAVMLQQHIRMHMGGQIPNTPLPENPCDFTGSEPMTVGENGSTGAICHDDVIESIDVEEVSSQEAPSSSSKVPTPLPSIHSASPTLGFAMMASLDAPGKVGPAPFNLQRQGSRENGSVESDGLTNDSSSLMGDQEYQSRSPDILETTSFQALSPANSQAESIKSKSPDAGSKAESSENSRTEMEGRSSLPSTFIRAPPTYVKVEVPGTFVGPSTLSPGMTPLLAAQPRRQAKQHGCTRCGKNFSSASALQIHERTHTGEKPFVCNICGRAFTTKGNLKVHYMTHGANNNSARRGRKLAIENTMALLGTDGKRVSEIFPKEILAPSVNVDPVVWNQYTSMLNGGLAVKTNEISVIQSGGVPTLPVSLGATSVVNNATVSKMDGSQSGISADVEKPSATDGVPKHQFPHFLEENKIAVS
# UniProt Q8NEG4, 2-500 limits assumed: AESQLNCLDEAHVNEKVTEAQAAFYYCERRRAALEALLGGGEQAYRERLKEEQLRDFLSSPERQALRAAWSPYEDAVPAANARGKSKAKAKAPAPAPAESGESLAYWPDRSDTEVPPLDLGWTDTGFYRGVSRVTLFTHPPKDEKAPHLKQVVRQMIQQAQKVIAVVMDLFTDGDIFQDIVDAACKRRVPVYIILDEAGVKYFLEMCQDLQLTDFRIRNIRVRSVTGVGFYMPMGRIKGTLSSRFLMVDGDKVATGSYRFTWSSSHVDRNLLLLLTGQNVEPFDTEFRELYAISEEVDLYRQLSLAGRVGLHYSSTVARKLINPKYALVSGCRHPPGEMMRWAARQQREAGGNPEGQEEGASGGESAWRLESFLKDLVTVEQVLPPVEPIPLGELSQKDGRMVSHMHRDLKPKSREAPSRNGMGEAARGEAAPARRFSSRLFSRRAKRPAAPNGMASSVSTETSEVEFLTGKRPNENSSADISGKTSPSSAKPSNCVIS
# [1] = typical dose 200–400 mg thalidomide, 25 mg lenalidomide, 2 mg pomalidomide; ref Chen et al., 2017; Hoffmann et al., 2013; Teo et al., 2004; read-out: maximum plasma concentration (Cmax); cited from earlier work
# CSNK1A1 = CSNK1A1 (Homo sapiens, UniProt P48729); experiment: TMT proteomics Kelly cells: CSNK1A1 abundance; conditions: 5 h vs DMSO, thalidomide 10 µM, lenalidomide 5 µM, pomalidomide 1 µM
# SALL4 [2] = target: T1, SALL4 (Homo sapiens, UniProt Q9UJQ4); experiment: TMT proteomics Kelly cells: SALL4 abundance; conditions: 5 h vs DMSO, thalidomide 10 µM, lenalidomide 5 µM, pomalidomide 1 µM
# SALL4 [3] = target: T1, SALL4; experiment: Western blot of SALL4 in H9 hESC; type: cell-based; set-up: endogenous in cells; host or cells: Kelly, H9 hESC, SK-N-DZ cells; conditions: increasing doses, 24 h
# RAB28 [4] = target: T2, RAB28 (Homo sapiens, UniProt P51157); experiment: TMT proteomics Kelly cells: RAB28 abundance; conditions: 5 h vs DMSO, thalidomide 10 µM, lenalidomide 5 µM, pomalidomide 1 µM
# SALL4 [5] = target: T1, SALL4; experiment: Western blot of SALL4 in Kelly, SK-N-DZ, HEK293T and H661 cells; conditions: increasing concentrations, 24 h
# SALL4 [6] = target: T1, SALL4; experiment: TMT proteomics H9 hESC: SALL4 abundance; type: cell-based; conditions: H9 hES cells, 5 h vs DMSO; thalidomide 10 µM, lenalidomide 5 µM, pomalidomide 1 µM
# From the text: (§1) We established a mass spectrometry-based workflow (Figure 1—figure supplement 1A) to detect IMiD-induced protein degradation in hESC.
# (§2) Proteins were precipitated using methanol/chloroform.
# FAM83F = FAM83F (Homo sapiens, UniProt Q8NEG4); experiment: TMT proteomics H9 hESC: FAM83F abundance; type: cell-based; conditions: H9 hES cells, 5 h vs DMSO; thalidomide 10 µM, lenalidomide 5 µM, pomalidomide 1 µM
# From the text: as §1, §2
# RAB28 [7] = target: T2, RAB28; experiment: TMT proteomics H9 hESC: RAB28 abundance; type: cell-based; set-up: protein abundance was analyzed using TMT quantification mass spectrometry; endogenous in cells; host or cells: Kelly, MM1s, H9 hESC, SK-N-DZ cells; conditions: H9 hES cells, 5 h vs DMSO; thalidomide 10 µM, lenalidomide 5 µM, pomalidomide 1 µM
# From the text: as §1, §2
structure (smiles),measurement,setting,value
Nc1cccc2c1CN(C1CCC(=O)NC1=O)C2=O (stereo not drawn) [lenalidomide],Cmax,[1],~2500 nM
same,logFC CSNK1A1,CSNK1A1,-0.4774
same,logFC SALL4,SALL4 [2],-0.759
same,SALL4 protein levels (western blot),SALL4 [3],dose-dependent decrease in protein levels
same,logFC RAB28,RAB28 [4],-0.4827
same,SALL4 protein levels (western blot),SALL4 [5],dose-dependent decrease in SALL4 protein levels
same,logFC SALL4,SALL4 [6],-0.6197
same,logFC FAM83F,FAM83F,-1.411
same,logFC RAB28,RAB28 [7],-0.7139

# — article PMC6156078, “Thalidomide promotes degradation of SALL4, a transcription factor implicated in Duane Radial Ray syndrome” (eLife, 2018)
